For one substance, IC50 results are on record in patent US6399782B1, “Benzimidazole inhibitors of fructose 1,6-bisphosphatase” (Metabasis Therapeutics, Inc., priority 1997, dated 2002).

The target in this test is T1, mouse liver FBPase (Mus musculus, UniProt Q9QXD6).
T1 construct: This partially purified fraction was used for enzyme assays; from tissue; host or cells: mouse liver, 45-75% ammonium sulfate fraction
T1 sequence (Q9QXD6 2-338 limits assumed): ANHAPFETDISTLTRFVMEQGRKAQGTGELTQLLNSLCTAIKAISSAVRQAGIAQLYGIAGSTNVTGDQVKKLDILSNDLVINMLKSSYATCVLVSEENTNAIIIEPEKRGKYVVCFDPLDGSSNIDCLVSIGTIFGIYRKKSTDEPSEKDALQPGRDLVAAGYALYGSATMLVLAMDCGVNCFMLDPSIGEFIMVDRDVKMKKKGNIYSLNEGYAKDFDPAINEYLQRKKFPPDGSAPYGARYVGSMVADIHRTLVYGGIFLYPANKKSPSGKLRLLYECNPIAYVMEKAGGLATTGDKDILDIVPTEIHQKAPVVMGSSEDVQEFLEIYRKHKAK
The test is described as follows: Inhibition of mouse liver FBPase. The conditions noted are these: partially purified mouse liver fraction. The class given is biochemical. The procedure:
Enzymatic activity was measured spectrophotometrically in reactions that coupled the formation of product (fructose 6-phosphate) to the reduction of dimethylthiazoldiphenyltetrazolium bromide (MTT) via NADP and phenazine methosulfate (PMS), using phosphoglucose isomerase and glucose 6-phosphate dehydrogenase as the coupling enzymes. Reaction mixtures (200 μl) were made up in 96-well microtitre plates, and consisted of 50 mM Tris-HCl, pH 7.4, 100 mM KCl, 5 mM EGTA, 2 mM MgCl2, 0.2 mM NADP, 1 mg/ml BSA, 1 mM MTT, 0.6 mM PMS, 1 unit/mL phosphoglucose isomerase, 2 units/mL glucose 6-phosphate dehydrogenase, and 0.150 mM substrate (fructose 1,6-bisphosphate). Inhibitor concentrations were varied from 0.01 μM to 10 μM.
Mouse liver FBPase was obtained by homogenizing freshly isolated mouse liver in 100 mM Tris-HCl buffer, pH 7.4, containing 1 mM EGTA, and 10% glycerol. […] This fraction was redissolved in the homogenization buffer and desalted on a PD-10 gel filtration column (Biorad) eluted with same. This partially purified fraction was used for enzyme assays. Both rat liver and mouse liver FBPase were assayed as described for human liver FBPase.

What is called IC50 is the concentration needed to halve the response being measured. Regarding “4-Amino-1-[(2-ethyl)pentyl]benzimidazol-2-yl-methylenoxymethyl phosphonic acid [Compound 12.57]”, the IC50 was > 20 µM.
